Reference: PubChem BioAssay AID860 (Vanderbilt High Throughput Screening Facility, 2007)

Target: Muscarinic acetylcholine receptor M4 (Rattus norvegicus) (UniProt P08485)
Experiment: antagonism at rat M4 muscarinic receptor, dose response, counter-screen for M1 allosteric modulator project, cell-based, antagonist mode (AID 860)
Conditions: rat M4-expressing cells, calcium fluorescence, antagonist mode at EC80 agonist

SMILES | IC50
O=C(OC1CN2CCC1CC2)C12CC3CC(CC(C3)C1)C2 (centres undefined) | 0.359 µM
O=C(COc1ccccc1)OC1CN2CCC1CC2 (centres undefined) | 11.8 µM
CCN(CC)CC(O)COC(=O)C(O)(c1ccccc1)C1CCCCC1 (centres undefined) | 0.0535 µM
O=C(OC1CN2CCC1CC2)c1cccc(Cl)c1 (centres undefined) | 11.3 µM
